Assay: Short-term stability in spiked pooled human plasma (bench-top, 4 °C, 56 °C)
Settings: validation standard 2xLLOV

COc1cc2nccc(Oc3ccc(NC(=O)C4(C(=O)Nc5ccc(F)cc5)CC4)cc3)c2cc1OC [Cabozantinib]
Short-time stability (24h, RT, without daylight) Accuracy [%]: 101.0%
